US11918822B2, “Compositions and methods for enhancing the biological response to chemical agents and physical stimuli” (The Research Foundation for the State University of New York, priority 2010, dated 2024)

Test system: C3H10T1/2 MSC
Assay: Osteoblast marker mRNA (PTHR1, osteocalcin) in MSC after adipogenic culture, real-time RT-PCR
Assay type: cell-based
Details: 100 ng/nl in multi-potential medium after seven days in adipogenic medium; control and LIV treated cultures
Description: C3H10T1/2 embryonic mesenchymal stem cells were maintained in growth medium (α-MEM, 10% FBS, 100 µg/ml penicillin/streptomycin). Cells were plated at a density of 6,000-10,000 cells per cm^2 in collagen-I coated silicone membrane plates and cultured for two days before loading protocols began. Adipogenic medium included 0.1 μM dexamethasone, 5 μg/ml insulin, and in some cases, 50 μM indomethcin. If noted, MSC wee transfected with siRNA (100 nm) in serum-free OptiMEM overnight before replacing the medium. Multi-potential medium contained 50 μg/ml ascorbic acid, 1 μM β-glycerophosphate, 10 nM dexamethasone, nM all trans-retinoic acid, 5 μg/mi insulin, 0.5 mM 3-isobutyl-1-methylxanthine (IBMX).
Real-time RT-PCR: Total RNA was isolated by using the RNeasy Plus Mini kit (Qiagen). Reverse transcription was performed with 1 μg of RNA in a total volume of 20 μl per reaction. Real time PCR was performed on a BioRad iCycler (Hercules, CA). 25 μl amplification reactions contained primers at 0.5 μM, dNTPs (0.2 mM each) in PCR buffer and 0.03 U Taq polymerase along with SYBR-green (Molecular Probes, Eugene, OR) at 1:150,000. Aliquots of cDNA were diluted 5-5000 fold to generate relative standard curves to which sample cDNA was compared. […]

B1: BMP2: osteogenic factor included in multi-potential medium (protein, UniProt P12643 283-396, looked up)
Bone morphogenetic protein 2: QAKHKQRKRLKSSCKRHPLYVDFSDVGWNDWIVAPPGYHAFYCHGECPFPLADHLNSTNHAIVQTLVNSVNSKIPKACCVPTELSAISMLYLDENEKVVLKNYQDMVVEGCGCR
**Q.** With B1 as the molecule, how does the “markers of osteoblast phenotype (PTHR1 and osteocalcin mRNA)” value read?
**A.** increased both markers of osteoblast phenotype
